Results as given in patent US20240132513A1, “BENZAZEPINE DERIVATIVES, COMPOSITIONS, AND METHODS FOR TREATING COGNITIVE IMPAIRMENT” (AGENEBIO, INC., priority 2022, published 2024).

Chains of the proteins cited; added tags and fusions are not shown. Residues count along the entry.
UniProt P18507, 40-475: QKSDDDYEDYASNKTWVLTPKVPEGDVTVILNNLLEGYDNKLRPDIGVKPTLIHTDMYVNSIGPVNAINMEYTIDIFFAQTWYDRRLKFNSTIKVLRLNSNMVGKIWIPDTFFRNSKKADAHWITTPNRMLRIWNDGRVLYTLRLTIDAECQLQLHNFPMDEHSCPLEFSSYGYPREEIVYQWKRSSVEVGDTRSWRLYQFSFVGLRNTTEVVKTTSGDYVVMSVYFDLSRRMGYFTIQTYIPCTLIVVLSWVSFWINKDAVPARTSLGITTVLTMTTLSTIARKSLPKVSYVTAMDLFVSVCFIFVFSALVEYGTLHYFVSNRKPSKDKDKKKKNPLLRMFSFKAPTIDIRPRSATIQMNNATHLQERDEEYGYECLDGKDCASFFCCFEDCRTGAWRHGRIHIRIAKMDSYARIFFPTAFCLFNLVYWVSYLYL
UniProt P31644, 32-462: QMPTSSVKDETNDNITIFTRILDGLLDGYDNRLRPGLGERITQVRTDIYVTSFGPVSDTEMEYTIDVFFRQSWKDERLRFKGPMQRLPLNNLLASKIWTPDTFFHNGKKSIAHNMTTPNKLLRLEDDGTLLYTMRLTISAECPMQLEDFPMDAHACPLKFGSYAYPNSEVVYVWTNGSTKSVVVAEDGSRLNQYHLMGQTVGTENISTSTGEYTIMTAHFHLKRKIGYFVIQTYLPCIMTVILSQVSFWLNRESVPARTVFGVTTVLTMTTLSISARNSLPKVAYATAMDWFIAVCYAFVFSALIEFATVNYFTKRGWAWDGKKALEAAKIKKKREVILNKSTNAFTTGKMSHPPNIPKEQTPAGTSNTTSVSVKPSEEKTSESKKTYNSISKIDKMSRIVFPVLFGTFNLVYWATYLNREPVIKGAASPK

Molecular target: T1, GABAA R (α5β2γ2) (Homo sapiens, UniProt P18507+P31644)
T1 construct: expressed in transfected cells
Assay: Positive allosteric modulator activity: potentiation of EC20 GABA current in oocytes
Format: cell-based
Details: read-out: GABA α5 Functional Data: potentiation
Procedure: On day 1, 1 ng/32 nL of GABAA α5β2γ2 cDNA was injected into one oocyte. Test starts on day 2. The cDNA injected to the oocytes was a mix of alpha, beta and gamma, their ratio is 1:1:10 (by weight) and the total weight of the mixed 3 subunits to be injected in one oocyte was 1 ng in 32 nl volume. The injected oocytes can also be tested on day 3. In such case, the cDNA amount injected to the oocytes should be reduced by 20%.
Compounds of the present disclosure were tested using the following procedures.
8 oocytes were placed in 8 chambers of OpusXpress and superfused with Modified Barth's Saline (MBS) at 3 mL/min. Glass electrodes back-filled with 3M KCl (0.5-3 megaohms) were used. Membrane potential of oocytes was voltage-clamped at −60 mV. • 2).
Control Test (Diazepam or Methyl 3,5-Diphenylpyridazine-4-Carboxylate) • 1). New oocytes was used to run new test. • 2). […] Oocytes were washed with MBS for 5-10 min. • 4). […] Itest was divided by IGABA to obtain potentiation (%).
Test Compounds at Multiple Doses • 1). Repeat the above steps 1), 2) and 3) in the control test. • 2). […] Divide Itest by IGABA to obtain potentiation (%). • 3). Discard all tested oocytes, new oocytes were used and the above steps 1) and 2) were repeated to test second concentration of the same compound. Each oocyte was used for only one concentration test for a single test compound. […]

## COc1ccc2c(c1)-c1[nH]ncc1Cc1c(-c3noc(C(C)C)n3)ncn1-2 [Compound 54]
  activation at 0.1 µM: > 50%
